{"source": "patent US11255830B2", "key": {"Olr319": {"tested_on": "Olr319", "assay": "DREAM analysis: OR mRNA level in olfactory epithelium after TNT exposure (RNA-Seq, qPCR)", "conditions": "rats, breather bags containing 5% TNT, five hours of exposure; RNA-Seq and qPCR", "excerpt": "(§1) To identify the odorant receptors that are activated by TNT, a technique called “DREAM” (i.e. Deorphanization of Receptors based on Expression Alterations of mRNA levels) was used, which takes advantage of the generalized reduction in odorant receptor mRNA concentration that occurs after specific OSN activation (von der Weid, B., Rossier, D., Lindup, M., Tuberosa, J., Widmer, A., Col, J. D., Kan, C., Carleton, A., and Rodriguez, I. (2015). Large-scale transcriptional profiling of chemosensory neurons identifies receptor-ligand pairs in vivo. Nat Neurosci 18, 1455-1463; see also US2017/0285009, both encorporated herein by reference). Rats, Rattus norvegicus, (n=8 in each group was calculated to be a sufficient sample sin using an alpha of 0.05, a power of 0.95, an effect size d of 1.8 in a one tailed Mann-Whitney U test) were exposed to vehicle control (BLANK) and “breather bags” containing 5% TNT, respectively. Breather bags were obtained from Signature Science, LLC and are commonly used to train Explosive Detection Dogs. After five hours of odor exposure, rats were sacrificed and mRNA was extracted out of the rat olfactory epithelial (OE) tissue using TRIzol® reagent. Subsequent deep sequencing of an olfactory cDNA library corresponding to each animal, allowed calculation of the fold difference in odorant receptor mRNA concentrations between the different groups using a threshold corresponding to genes located outside a 99% confidence interval of a fitted Gaussian distribution. […]\n(§2) In order to validate the identified TNT-responsive OR genes, the DREAM rat RNA was further analyzed by qPCR. […] The qPCR analysis shown in FIG. 4 illustrates the normalized relative Quantities (NRQ) for eight rats in each group (BLANK vs TNT).\n(§3) A comparison between the relative fold changes calculated using both qPCR (diamonds) and RNA-Seq analysis (circles) for the rat TNT-responsive ORs Olr710, Olr300, and Olr319 is shown in FIG. 6. […] Olfactory transcript levels were determined after five hours of TNT-exposure. […]"}, "Olr710": {"tested_on": "Olr710", "assay": "DREAM analysis: OR mRNA level in olfactory epithelium after TNT exposure (RNA-Seq, qPCR)", "conditions": "rats, breather bags containing 5% TNT, five hours of exposure; RNA-Seq and qPCR", "excerpt": "as §1, §2, §3"}, "Olr300": {"tested_on": "Olr300", "assay": "DREAM analysis: OR mRNA level in olfactory epithelium after TNT exposure (RNA-Seq, qPCR)", "conditions": "rats, breather bags containing 5% TNT, five hours of exposure; RNA-Seq and qPCR", "excerpt": "as §1, §2, §3"}, "TNT-responsive OR": {"tested_on": "TNT-responsive OR", "assay": "cAMP-Glo assay on isolated olfactory cilia", "conditions": "15 minutes at 37° C.", "method": "The assay employed to test activation of TNT-responsive ORs takes advantage of the fact that ORs are G-protein coupled receptors (GPCRs) that couple with adenylate cyclase III. Activated adenylate cyclase produces cyclic AMP (cAMP), which then stimulates protein kinase A (PKA) activity, leading to a decrease in ATP levels. This decrease in ATP is measured using a luciferase reaction, using a commercially available assay, for example, the Promega cAMP-Glo™ Assay. In this assay, which can be adapted for a 384 well format, a lower level of ATP leads to decreased bioluminescence, indicating increased activity of the OR.\n100 ng of freshly-thawed cilia isolated from either (1) mice that preferentially express a TNT-responsive OR or (2) wild type mice is placed in triplicate wells and incubated with control (solvent alone) or odor (i.e., TNT) for 15 minutes at 37° C. All subsequent steps are performed as per manufacturer's instructions for the Promega cAMP-Glo™ Assay. Analysis for cilia activation by TNT is performed by calculating the difference in the bioluminescent readout (DRLU) between TNT-treated and untreated cilia for the cilia isolated from either (1) mice that preferentially express a TNT-responsive OR or (2) wild type mice."}, "Olfr297": {"tested_on": "Olfr297", "assay": "TNT DREAM analysis on mice", "conditions": "mice n=7, TNT-exposed vs control, same protocol as rats; 0.03 p-value", "excerpt": "To identify the odorant receptors that are activated by TNT, a technique called “DREAM” (i.e. Deorphanization of Receptors based on Expression Alterations of mRNA levels) was used, which takes advantage of the generalized reduction in odorant receptor mRNA concentration that occurs after specific OSN activation (von der Weid, B., Rossier, D., Lindup, M., Tuberosa, J., Widmer, A., Col, J. D., Kan, C., Carleton, A., and Rodriguez, I. (2015). Large-scale transcriptional profiling of chemosensory neurons identifies receptor-ligand pairs in vivo. Nat Neurosci 18, 1455-1463; see also US2017/0285009, both encorporated herein by reference). Rats, Rattus norvegicus, (n=8 in each group was calculated to be a sufficient sample sin using an alpha of 0.05, a power of 0.95, an effect size d of 1.8 in a one tailed Mann-Whitney U test) were exposed to vehicle control (BLANK) and “breather bags” containing 5% TNT, respectively. Breather bags were obtained from Signature Science, LLC and are commonly used to train Explosive Detection Dogs. After five hours of odor exposure, rats were sacrificed and mRNA was extracted out of the rat olfactory epithelial (OE) tissue using TRIzol® reagent. […]"}}, "note": "This is a selection: effects in other tests are not listed, and their absence says nothing.", "data": [{"smiles": "Cc1c([N+](=O)[O-])cc([N+](=O)[O-])cc1[N+](=O)[O-]", "values": [{"measurement": "expression of Olr319 upon exposure to TNT (TNT/Blank)", "setting": "Olr319", "value": "downregulated"}, {"measurement": "expression of Olr710 upon exposure to TNT (TNT/Blank)", "setting": "Olr710", "value": "downregulated"}, {"measurement": "expression of Olr300 upon exposure to TNT (TNT/Blank)", "setting": "Olr300", "value": "downregulated"}, {"measurement": "activation of OR (decreased ATP levels, DRLU)", "setting": "TNT-responsive OR; cilia from mice that preferentially express a TNT-responsive OR", "value": "activated"}, {"measurement": "activation of ORs (ATP levels, DRLU)", "setting": "TNT-responsive OR; wild type cilia", "value": "neither TNT nor the odor control causes activation"}, {"measurement": "fold change of Olfr297 expression", "setting": "Olfr297", "value": 0.37, "unit": "fold"}]}]}
